Biological target: Protein G on µMACS Protein G microbeads (Group G Streptococci) (UniProt P06654)
Assay: immobilisation on µMACS Protein G microbeads

CD4-immunoglobulin G2 (CD4-IgG2), tetrameric CD4-based molecule (from UniProt P01730 26-204; P01730 26-203) (Fc fusion)
capacity of the microbeads (µg per ml of microbead suspension): 40
